Experimental data: patent US9649378B2, “Cancer methods” (priority 2010, dated 2017)

System: phospho-ERK
Assay: EGF induced phospho-ERK activation in OPCML transfected (BKS2.1) and control (SKOBS-V1.2) cells
Details: OPCML transfected versus control cells

Row | Substance | OPCML mediated sensitization
1 | trastuzumab: anti-HER2 antibody | Lesser sensitization than for lapatinib
2 | cetuximab: inhibitor of EGFR | no sensitization
